Shown are actives, neighbours in structure and some others; about 1.7% of the full set was active somewhere.
PTHR1 agonist = activates the human parathyroid hormone receptor PTHR1; Q03431; HEK293 GP2 PTHR1 cells, GloSensor cAMP luminescence, 1 h; Potency, µM (series often up to 115 µM), for the others: at the highest dose activation, actives largely listed as activators; 410,000 tested, 0.075% active; AID 743266; further: potency means the concentration at half of the fitted maximal effect; nearly all actives have a fitted effect of over 55% in size
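HEK-293-derived GP2 cells expressing PTHR1 and a GloSensor cAMP reporter, 3,000/well, plated overnight, given luciferin plus IBMX (each 0.5 mM as added) for 1 h at 37 °C, then compound for 1 h at 37 °C. Luminescence was read after 15 min at room temperature.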
GLP1R inv ag = inverse agonists of human GLP-1 receptor; P43220; HEK293 GLP-1R CRE-luciferase, luminescence, 24 h; GLP-1R form is constitutively active; Potency, µM (series often up to 38.3 µM), without a hit: at the highest dose activity change, negative = inhibition, most hits filed as inhibitors; 410,000 tested, 1.6% active; AID 624417; further: potency means the concentration at half of the fitted maximal effect; on the % scale 0 is the no-effect control and ±100 the full control effect; nearly all actives have a fitted effect of over 55% in size
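Using stably transfected HEK293 (constitutively active GLP-1R, cAMP-luciferase reporter), compounds were incubated 24 hr and luciferase measured by luminescence.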
miR-21 reporter = miR-21 reporter, rising signal | AID 2288 | HeLa miR-21 FLuc reporter, luciferase, 48 h | 340,000 tested, under 10 active | Potency, µM (doses to about 38.3 µM), for inactives: at the top dose reporter change, positive = more light; active = well fitted rising curve with a large enough effect; inconclusive = small, poorly fitted or top-dose-only effect; inactive = no such curve, though single readings can be large or run the other way;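 note: % of control where 0% means no effect; miR-21 action dims this reporter so a rising signal means less miR-21 action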
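HeLa cells stably expressing CMV-driven firefly luciferase with a downstream miR-21 binding sequence, endogenously expressing miR-21, were treated with titrations (up to about 40uM final) for 48 hours at 37 degree Celsius. Luciferase luminescence was read after lysis.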
HEK293 tox = cytotoxic in the GLP-1 receptor inverse agonist counter-screen; HEK293 cAMP-luciferase reporter cells, luminescence, 24 h; Potency, µM (titrated, usually from 38.3 µM), without a hit: at the highest dose activity change, negative = inhibition, most hits filed as inhibitors; 410,000 tested, 0.13% active;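 further: loss of luciferase light is scored as toxicity; potency means the concentration at half of the fitted maximal effect; on the % scale 0 is the no-effect control and ±100 the full control effect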
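A 23 nL compound transfer followed 12 hours of cell culture at 37 deg C; exposure then lasted 24 hr. Luciferase assay detection reagent was dispensed and plates read for luminescence after a 12 min room-temperature wait.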
Pin1 inhibitor = human Pin1 inhibition. AID 504891. Potency, µM (doses to about 115 µM), for the others: at the highest dose activity, negative = inhibition, most hits filed as inhibitors. Pin1 FP peptide displacement, HiFluor488, 10 min. 390,000 tested, 0.009% active; active means well fitted inhibition curve with a large enough effect in the polarisation, with a control signal flat, not every such curve was filed as active; inconclusive means small, poorly fitted or top-dose-only effect, or effect the other way, or a change in a side signal; inactive means no such curve, though single readings can be large or run the other way; the % refers to the polarisation; further: potency means the concentration at half of the fitted maximal effect; on the % scale 0 is the no-effect control and ±100 the full control effect
GLP-1R agonist = GLP-1 receptor (human) agonism. P43220. HEK293 GLP-1R CRE-luciferase, luminescence, 4-6 h; cells express a hypersensitive GLP-1R form. Potency, µM (highest dose often 45.6 µM), for the others: at the highest dose activation, actives largely listed as activators. 380,000 tested, 0.007% active; further: potency means the concentration at half of the fitted maximal effect; % of control where 0% means no effect
Numbers without * were called inactive; i = inactive; ? = inconclusive; · = no result given. Unless noted, the call rests on the fitted dose curve; in most records, active means well fitted curve in the direction sought with a large enough effect; inconclusive means small, poorly fitted or top-dose-only effect, or another doubt; inactive means no such curve, though single readings can be large; an effect the other way counts as inactive or inconclusive.

SMILES	PTHR1 agonist	GLP1R inv ag	miR-21 reporter	HEK293 tox	Pin1 inhibitor	GLP-1R agonist
CCNC(=O)c1cccc(NC(=O)c2cc(C3CC3)nc3c2cnn3C(C)C)c1	i	10µM*	·	-18%	11%	12%
COc1ccc(CNC(=O)c2cc(C3CC3)nc3c2cnn3C(C)C)cc1	i	?	·	2%	23%	8%
CCOc1ccc(OCCNC(=O)c2cc(C3CC3)nc3c2cnn3C(C)C)cc1	-37%	8.9µM*	·	-10%	16%	1%
Oc1ccc(Br)cc1C1C=C(c2ccc3c(c2)OCO3)NC(c2c(F)cccc2Cl)N1 (stereo not given)	·	·	·	·	-2%	·
Cc1cc(Cl)ccc1OCC(=O)N(Cc1ccco1)Cc1ccccc1F	-11%	11µM*	9%	7%	9%	·
CC(=O)[C@]1(O)Cc2c(O)c3c(c(O)c2[C@@H](O[C@H]2C[C@H](N)[C@H](O)[C@H](C)O2)C1)C(=O)c1c(O)cccc1C3=O	·	·	·	·	·	-8%
CC(C)c1ccc(Nc2c(-c3ccccn3)nc3ccccn23)cc1	i	?	?	-16%	3%	·
CCOc1ccc(NC(=O)C(C)Sc2nnc3cc(C)c4ccccc4n23)cc1 (stereo not given)	8%	-3%	-20%	1%	?	·
CCCCOc1ccc(C(=O)NCC(=O)N2CC(C)CC(C)C2)cc1 (stereo not given)	i	11µM*	·	-1%	2%	-1%
N#CC(C#N)=c1ccc2c(c1)NC1(CCCCC1)N=2	-88%	164%	?	10µM*	1%	0%
N#CC(C#N)=C1NC2(CCCCC2)Cc2ccccc21	-56%	-4%	3%	-10%	-4%	15%
Cc1cc(NC(=O)CCN2CCC(C)CC2)ccc1Br	i	10µM*	-12%	19%	4%	12%
O=C(NC(=S)N1CCN(c2ccc(C(F)(F)F)cc2[N+](=O)[O-])CC1)c1cccs1	-37%	0%	-3%	10µM*	-6%	-16%
CCOc1cc(/C=N/NS(=O)(=O)c2ccccc2)ccc1OS(=O)(=O)c1ccc(C)cc1	-8%	8.9µM*	10%	-8%	-1%	-11%
c1ccc(CN2CCN(c3nc(-c4ccccn4)nc4ccccc34)CC2)cc1	i	1%	?	-8%	-4%	-1%
c1ccc(CN2CCN(c3nc(-c4ccccc4)nc4ccccc34)CC2)cc1	i	3.5µM*	5%	5%	?	0%
COc1ccc(N2CCN(C(CNC(=O)C(=O)NCCC3=CCCCC3)c3ccco3)CC2)cc1 (stereo not given)	-9%	10µM*	-10%	?	-7%	-1%
Cc1cc(C)cc(-n2ncc3c2CCCC3NC(=O)c2cc(C)oc2C)c1 (stereo not given)	-11%	13µM*	-2%	-8%	3%	0%
Cc1ncoc1C(=O)NC1CCCc2c1cnn2-c1ccc(C(C)(C)C)cc1 (stereo not given)	-55%	5µM*	21%	11%	-4%	5%
COCc1ccc(C(=O)NC2CCCc3c2cnn3-c2cc(C)cc(C)c2)s1 (stereo not given)	-35%	7.1µM*	7%	-18%	-1%	6%

Two of these compounds in another layout:
> Cc1cc(C)cc(-n2ncc3c2CCCC3NC(=O)c2cc(C)oc2C)c1 (stereo not given)
  PTHR1 agonist: -11%
  GLP1R inv ag: 13µM*
  miR-21 reporter: -2%
  HEK293 tox: -8%
  Pin1 inhibitor: 3%
  GLP-1R agonist: 0%

> CCCCOc1ccc(C(=O)NCC(=O)N2CC(C)CC(C)C2)cc1 (stereo not given)
  PTHR1 agonist: i
  GLP1R inv ag: 11µM*
  miR-21 reporter: ·
  HEK293 tox: -1%
  Pin1 inhibitor: 2%
  GLP-1R agonist: -1%

Further results.
SMILES	PTHR1 agonist	GLP1R inv ag	miR-21 reporter	HEK293 tox	Pin1 inhibitor	GLP-1R agonist
COc1ncccc1C(=O)NC1CCCc2c1cnn2-c1cc(C)cc(C)c1 (stereo not given)	-20%	4%	3%	1%	1%	?
NC1CCN(c2nc(-c3ccc(Br)cc3)cs2)CC1	·	·	·	·	-16%	·
Cc1ccc(NC(=O)C(OC(=O)c2ccc(O)cc2)c2ccccc2)cc1Cl (stereo not given)	i	1%	-1%	-1%	1%	-4%
Cc1ccc(NC(=O)C(c2ccccc2)N(C)C)cc1Cl (stereo not given)	i	5µM*	-7%	-10%	2%	4%
COc1ccccc1OCCn1c(CCNC(=O)C2CCCCC2)nc2ccccc21	·	·	·	·	-1%	·

Assay outcomes as filed in PubChem BioAssay.
